Tests used:
[1] = target: T1, soluble human FcRn (shFcRn) (human, UniProt P55899 24-297; P61769 21-119); test: IgG competition ELISA
T1 construct: Biotinylated for the ELISA, amine-coupled to a CM5 chip for SPR; also called biotinylated shFcRn
Description: Afterwards, the plate was washed with 200 μl/well of Buffer B (Buffer B: 100 mM MES pH 6, 150 mM NaCl, 0.5% BSA IgG-free (Jackson ImmunoResearch, West Grove, Pa.), 0.05% Tween-20). […] To allow for mixing, the plate was rocked for 2 minutes, sealed and incubated at 37° C. for 2 hours. […] Once color developed, 100 μl/well of TMB stop solution (KPL, Gaithersburg, Md.) was added and the absorbance was measured at 450 nm.

Sequences of proteins named here, by UniProt entry; tags and fusion partners are left off. Residues count along the entry.
UniProt P55899, 24-297 limits assumed, chain 1 of 2: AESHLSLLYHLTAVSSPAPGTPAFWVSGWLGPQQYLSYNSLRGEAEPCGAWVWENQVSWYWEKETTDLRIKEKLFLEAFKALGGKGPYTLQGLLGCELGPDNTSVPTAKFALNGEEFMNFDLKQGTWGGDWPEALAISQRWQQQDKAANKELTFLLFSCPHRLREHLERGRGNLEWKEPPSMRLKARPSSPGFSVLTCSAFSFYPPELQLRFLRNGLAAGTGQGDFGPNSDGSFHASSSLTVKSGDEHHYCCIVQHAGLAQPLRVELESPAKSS

[2] = target: T1, soluble human FcRn (shFcRn); test: SPR pH 6
Description: (§1) The following steps were performed to cross-link soluble human or cynomolgus FcRn to the dextran surface of a CM5 sensor chip (Biacore AB, Uppsala, Sweden) by an amine coupling reaction involving 1-ethyl-(3-dimethylaminopropyl)-carbodiimide hydrochloride (EDC) (Biacore AB, Uppsala, Sweden) and N-hydroxysuccinimide (NHS) (Biacore AB, Uppsala, Sweden) as recommended by Biacore (BIAapplications Handbook, version AB, section 4.2, Biacore AB, Uppsala, Sweden). […] Residual sites on the FcRn flow cell were blocked with 1 M ethanolamine hydrochloride pH 8.5 (Biacore AB, Uppsala, Sweden). A control flow cell was blocked with ethanolamine for reference subtraction. For analysis of the monomeric peptides, FcRn was coated to a final density of 4000-5000 response units (RU). For analysis of the peptide dimers, FcRn was coated to a density of 2000-2500 RU. All SPR measurements were performed using a BIACORE 3000 Instrument (Biacore AB Uppsala, Sweden). For measurements done at either pH 6 or pH 7.4, experiments were performed in 50 mM phosphate, 100 mM sodium chloride, 0.01% surfactant P20 (Biacore AB, Uppsala, Sweden).
(§2) The peptide was dissociated from the chip for 2.5 minutes with buffer. […] Sensorgrams were generated and analyzed using BiaEval software version 3.1 (Biacore AB, Uppsala, Sweden). The equilibrium RU observed for each injection was plotted against concentration.

[3] = target: T1, soluble human FcRn (shFcRn); test: SPR pH 7.4
Description: as §1, §2

[4] = target: T1, soluble human FcRn (shFcRn); test: SPR pH 6; 4-fluoro-Phe in place of Tyr; Pen backbone
Description: as §1, §2

[5] = target: T1, soluble human FcRn (shFcRn); test: SPR pH 6; 4-methoxyPhe in place of Tyr; Pen backbone
Description: as §1, §2

Row | IC50 [1] | Kd [2] | Binder | also measured
1 | 1.7 µM | – | FCTGHFGPLYPC (Pen 2; D-Pro 8; disulfide 2-12; C-terminal amide) [Peptide No. 143] | –
2 | – | 1.2 µM | QRFCTGHXGGLYPCNGP (Pen 4; 2-pyridylalanine 8; disulfide 4-14; C-terminal amide) [Peptide No. 58] | –
3 | 11 µM | – | RFCTGHFFGLYPC (Pen 3; D-Phe 8; Sar 9; NMeLeu 10; disulfide 3-13; C-terminal amide) [Peptide No. 217] | –
4 | – | – | RFCTGAFGGLYPC (Pen 3; Sar 9; NMeLeu 10; disulfide 3-13; C-terminal amide) [Peptide No. 266] | Kd [3]: 13 µM
5 | – | 13 µM | RFCTGHFVGLYPC (Pen 3; D-Val 8; Sar 9; NMeLeu 10; disulfide 3-13; C-terminal amide) [Peptide No. 218] | –
6 | 33 µM | 2.6 µM | RFCTGHFDGLYPC (Pen 3; D-Asp 8; Sar 9; NMeLeu 10; disulfide 3-13; C-terminal amide) [Peptide No. 242] | –
7 | 4.5 µM | 0.36 µM | RFCTGHFQGLYPC (Pen 3; D-Gln 8; Sar 9; NMeLeu 10; disulfide 3-13; C-terminal amide) [Peptide No. 245] | –
8 | 11 µM | 2.7 µM | RFCTGHFWGLYPC (Pen 3; D-Trp 8; Sar 9; NMeLeu 10; disulfide 3-13; C-terminal amide) [Peptide No. 220] | –
9 | 13 µM | 2.2 µM | QRFCTGHXGGLYPCNGP (Pen 4; 1-napthylalanine 8; disulfide 4-14; C-terminal amide) [Peptide No. 61] | –
10 | – | 120 µM | QRFCTGHFGGLXPCNGP (Pen 4; 2-pyridylAla 12 (printed 2-pvridylAla); disulfide 4-14; C-terminal amide) [Peptide No. 66] | –
11 | 54 µM | 13 µM | QRFCTGXFGGLYPCNGP (Pen 4; Dap(Guanyl) 7; disulfide 4-14; C-terminal amide) [Peptide No. 297] | Kd [3]: 16 µM
12 | – | 0.23 µM | QRFCTGHFGPLYPCNGP (Pen 4; D-Pro 10; disulfide 4-14; C-terminal amide) [Peptide No. 40] | –
13 | 3.1 µM | – | QRFCTGHFDGLYPCNGP (Pen 4; D-Asp 9; disulfide 4-14; C-terminal amide) [Peptide No. 47] | –
14 | 22 µM | – | QRFCTGHFFPLYPCNGP (Pen 4; D-Phe 9 (Pro 10 is L); disulfide 4-14; C-terminal amide) [Peptide No. 203] | –
15 | 3.2 µM | 0.32 µM | QRFCTGHFYGLYPCNGP (Pen 4; D-Tyr 9; disulfide 4-14; C-terminal amide) [Peptide No. 53] | –
16 | – | – | QRFCTGHFGGLFPCNGP (Pen 4; 4-fluoro-Phe 12; disulfide 4-14; C-terminal amide) [Peptide No. 140] | Kd [4]: 2.2 µM
17 | – | 0.79 µM | QRFCTGHFPGLYPCNGP (Pen 4; D-Pro 9; disulfide 4-14; C-terminal amide) [Peptide No. 48] | Kd [3]: 21 µM

Row | IC50 [1] | Kd [2] | Binder | also measured
18 | – | – | QRFCTGHFGGLFPCNGP (Pen 4; 4-methoxyPhe 12; disulfide 4-14; C-terminal amide) [Peptide No. 64] | Kd [5]: 31 µM
19 | 13 µM | – | QRFCTGHFGFLYPCNGP (Pen 4; D-Phe 10; disulfide 4-14; C-terminal amide) [Peptide No. 44] | –
20 | – | 0.41 µM | QRFCTGHFHGLYPCNGP (Pen 4; D-His 9; disulfide 4-14; C-terminal amide) [Peptide No. 50] | –
21 | 4.5 µM | – | QRFCTGHFAALYPCNGP (Pen 4; D-Ala 9 and 10; disulfide 4-14; C-terminal amide) [Peptide No. 148] | –
22 | – | 2.2 µM | QRFCTGHFGILYPCNGP (Pen 4; D-Ile 10; disulfide 4-14; C-terminal amide) [Peptide No. 43] | –
23 | 7.7 µM | – | QRFCGGHFGGLYPCNGP (Pen 4; disulfide 4-14; C-terminal amide) [Peptide No. 195] | –
24 | 9.4 µM | 2.6 µM | QRFCTGHFIGLYPCNGP (Pen 4; D-Ile 9; disulfide 4-14; C-terminal amide) [Peptide No. 51] | –
25 | – | 2.7 µM | QRFCTGHWGGLYPCNGP (Pen 4; disulfide 4-14; C-terminal amide) [Peptide No. 95] | –
26 | 1.7 µM | 0.17 µM | QRFCTGHFGGWYPCNGP (Pen 4; disulfide 4-14; C-terminal amide) [Peptide No. 116] | –
27 | 13 µM | – | QRFCTGHFGYLYPCNGP (Pen 4; D-Tyr 10; disulfide 4-14; C-terminal amide) [Peptide No. 45] | Kd [3]: 31 µM
28 | – | 0.29 µM | QRWCTGHFGGLYPCNGP (Pen 4; disulfide 4-14; C-terminal amide) [Peptide No. 98] | –
29 | – | 3.3 µM | QRFCTGHFPPLYPCNGP (Pen 4; D-Pro 9 and 10; disulfide 4-14; C-terminal amide) [Peptide No. 152] | –
30 | 7.7 µM | 0.44 µM | QRFCTGHFGGMYPCNGP (Pen 4; disulfide 4-14; C-terminal amide) [Peptide No. 117] | –
31 | 12 µM | – | QRFCTGHFGHLYPCNGP (Pen 4; D-His 10; disulfide 4-14; C-terminal amide) [Peptide No. 42] | –
32 | 6.5 µM | – | QRFCTGHFGGHYPCNGP (Pen 4; disulfide 4-14; C-terminal amide) [Peptide No. 84] | –
33 | – | 0.068 µM | QRFCTGHFGGWYPCNGP (Pen 4; Sar 10; disulfide 4-14; C-terminal amide) [Peptide No. 238] | –
34 | 31 µM | 4.5 µM | QRFCTGHXGGLYPCNGP (Pen 4; Cha 8; disulfide 4-14; C-terminal amide) [Peptide No. 93] | –

— patent US20110059889A1 (SYNTONIX PHARMACEUTICALS, published 2011)
